{"sequences": {"note": "By UniProt entry, the sequences of proteins in these tests, tags left out. Residues count along the entry.", "UniProt P04062, 40-536": "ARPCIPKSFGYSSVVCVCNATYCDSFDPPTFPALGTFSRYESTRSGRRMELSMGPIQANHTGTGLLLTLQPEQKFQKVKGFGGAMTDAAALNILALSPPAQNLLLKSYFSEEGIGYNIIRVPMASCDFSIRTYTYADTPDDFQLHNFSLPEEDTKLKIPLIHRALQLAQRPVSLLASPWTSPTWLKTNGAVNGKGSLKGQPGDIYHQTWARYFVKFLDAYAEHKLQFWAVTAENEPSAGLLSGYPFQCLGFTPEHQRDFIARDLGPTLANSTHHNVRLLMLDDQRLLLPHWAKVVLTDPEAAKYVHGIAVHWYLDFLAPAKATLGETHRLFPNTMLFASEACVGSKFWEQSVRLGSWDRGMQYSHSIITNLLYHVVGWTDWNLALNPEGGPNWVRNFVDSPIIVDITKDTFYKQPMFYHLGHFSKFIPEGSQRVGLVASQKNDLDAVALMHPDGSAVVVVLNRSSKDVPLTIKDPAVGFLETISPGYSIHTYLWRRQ"}, "source": "patent US11826435B2", "about": "“Conduritol aziridine derivatives and uses thereof” (University of Saskatchewan, priority 2017, dated 2023)", "origin": "cited, not measured here", "molecular_target": "GCase (Homo sapiens (Human), UniProt P04062)", "conditions": "inhibition of GCase, reported data; cited from earlier work", "data": [{"substance": "N-octyl conduritol aziridine [Compound 1.7]", "values": [{"measurement": "Ki", "value": 5, "unit": "nM"}]}]}
